From patent publication US20240174622A1, “COMPOUND AND RADIOACTIVE LABELING COMPOUND” (NIHON MEDI-PHYSICS CO., LTD., priority 2021, published 2024)

The chains behind the UniProt entries cited, without tags or fusion partners. Residues count along the entry.
UniProt P02768, 25-609: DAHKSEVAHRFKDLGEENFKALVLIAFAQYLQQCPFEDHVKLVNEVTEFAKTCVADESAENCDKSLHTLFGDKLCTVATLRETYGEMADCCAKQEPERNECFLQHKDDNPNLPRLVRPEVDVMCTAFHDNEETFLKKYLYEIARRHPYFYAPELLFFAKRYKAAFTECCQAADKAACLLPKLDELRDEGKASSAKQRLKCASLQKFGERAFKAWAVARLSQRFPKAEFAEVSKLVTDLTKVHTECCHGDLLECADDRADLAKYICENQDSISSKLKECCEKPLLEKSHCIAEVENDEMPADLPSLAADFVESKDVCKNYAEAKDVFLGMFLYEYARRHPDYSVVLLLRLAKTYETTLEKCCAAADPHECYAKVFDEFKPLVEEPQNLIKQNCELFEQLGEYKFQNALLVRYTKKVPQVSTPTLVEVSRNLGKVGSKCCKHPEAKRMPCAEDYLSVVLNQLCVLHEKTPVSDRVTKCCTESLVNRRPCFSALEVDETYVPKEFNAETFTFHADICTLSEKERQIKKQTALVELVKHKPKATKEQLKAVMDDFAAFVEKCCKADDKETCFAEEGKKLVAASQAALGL

Legend:
[1] = test system: LNCaP tumor-transplanted mouse; experiment: Internal radioactivity distribution using LNCaP tumor-transplanted mouse; type: in vivo; conditions: 24 hours after administration
Method: The animal test was performed in compliance with the guidelines of Kyoto University Animal Experiment Committee. Male CB17/IcrJcl-Prkdc^scid mice were purchased from CLEA Japan, Inc. The animals were kept under 12 h/12 h, day/night cycle conditions and fed ad libitum with food and water. LNCaP cells (1.0×10^7 cells/mouse) or PC-3 cells (1.0×10^7 cells/mouse) were suspended in a mixture of PBS and Matrigel manufactured by Corning Life Sciences (1:1, 150 μL) and the suspension was subcutaneously transplanted to the right shoulder of mice under isoflurane anesthesia. Thereafter, the mice were kept for 40 to 60 days.
LNCaP or PC-3 tumor-implanted mice were administered saline solutions (185 kBq, 100 μL) of [^111In]In-PSMA-DA1 or [^111In]In-PSMA-DB from the tail vein (n=3 each). […] Thereafter, blood and each organ were recovered, and the mass and radioactivity of the organs were measured.
The percentage (% ID) of the radioactivity amount to the administered radioactivity amount (injected dose) is shown as the value (% ID/g) divided by the blood mass or the organ mass (g).
LNCaP tumor-implanted mice prepared by the same method as in Example 1-1 were administered a saline solution (241 kBq/100 μL) of [^111In]In-PtDA from the tail vein (n=3). […] Thereafter, blood and each organ were recovered, and the mass and radioactivity of the organs were measured. […]

[2] = target: human serum albumin (HSA) (Homo sapiens, UniProt P02768); experiment: Evaluation of binding to albumin (HSA solution, PBS control)
Method: Thereafter, the reaction liquids were added to a spin column (Sephadex G-100; manufactured by Cytiva), and centrifuged at 1500×g at 4° C. for 2 minutes. After separation, the radioactivity for each of the column and the eluate was measured with a gamma counter.
When a compound to be evaluated binds to albumin to form a composite, the compound passes through the column because of the increased molecular size.
As in Examples described above, PBS and human albumin were used to evaluate binding to albumin.
Thereafter, the reaction liquid was added to a spin column (Sephadex G-50; manufactured by Cytiva), and centrifuged at 1500×g at 4° C. for 2 minutes. After separation, the radioactivity of the column and the eluate was measured with a gamma counter.

## O=C(O)CC[C@H](NC(=O)N[C@@H](CCCCNC(=O)[C@H](Cc1ccc2ccccc2c1)NC(=O)[C@H]1CC[C@H](CNC(=O)CCC(C(=O)O)N2CCN(CC(=O)O)CCN(C(CCC(=O)N[C@@H](CCCCNC(=O)CCCc3ccc(I)cc3)C(=O)O)C(=O)O)CCN(CC(=O)O)CC2)CC1)C(=O)O)C(=O)O (stereo partly drawn) [[^111In]In-PSMA-NAT-DA1, metal not drawn]
[1]
  tumor/kidney ratio: exceeded 1
[2]; left to stand in HSA solution (45 mg/mL)
  radioactivity in the eluate (in words): significantly high
[2]; left to stand in PBS
  radioactivity in the eluate (in words): no significant radioactivity
